Values quoted from earlier work in patent US20100297112A1, “COMBINATIONS COMPRISING DMXAA FOR THE TREATMENT OF CANCER” (Antisoma Research Limited, priority 2005, published 2010).

Tested on: mouse and human liver microsomes
Details: diclofenac 100 μM; cited from earlier work

O=C(O)Cc1ccccc1Nc1c(Cl)cccc1Cl [diclofenac]
inhibition of 6-methylhydroxylation of DMXAA: > 54%
inhibition of glucoronidation of DMXAA: > 70%
